Patent publication US7482024B2, “Compositions comprising an active agent” (Nektar Therapeutics, priority 1999, dated 2009)

Experiment: Surface tension measurement, Kruss Processor Tensiometer-K12, Wilhelmy-method (plate method)
Assay type: physicochemical
Details: 0.2% (wt/vol) plus raffinose to 1% total solids, 25° C.
Protocol: A “surface active” material is one having surface activity (measured, e.g., by surface tensiometry), as characterized by its ability to reduce the surface tension of the liquid in which it is dissolved. […] A peptide that is more surface active than another peptide is one which decreases the surface tension of water to a greater extent, when present in the liquid at the same concentration and measured under the same set of experimental conditions. The surface tension of several representative dipeptides, tripeptides, and proteins was measured at 25° C. and 45° C. to provide an indication of their relative surface activities. Surface tension measurements were carried out using a Kruss Processor Tensiometer-K12 with the Wilhelmy-method (Plate method). Solutions were prepared by dissolving either 0.05%, 0.2%, or 0.6% peptide/protein (by weight) along with an appropriate amount of raffinose by weight to provide final solutions having a 1.0% by weight solids content. Surface tension measurements at 25° C. and 45° C. were then obtained for the test solutions at three different time points (49 seconds, 100 seconds and 194 seconds).

tri-alanine [reference compound]
Surface tension (ST) (49 s): 72.4 mN/m and 72.2 mN/m and 72.3 mN/m | Surface tension (ST) (100 s): 72.4 mN/m and 72.2 mN/m | Surface tension (ST) (194 s): 72.3 mN/m and 72.2 mN/m

tri-glutamate [reference compound]
Surface tension (ST) (49 s): 72.1 mN/m and 72.4 mN/m | Surface tension (ST) (100 s): 72.1 mN/m and 72.4 mN/m | Surface tension (ST) (194 s): 72.1 mN/m and 72.4 mN/m and 72.3 mN/m

Where “and” joins values, the source holds several entries; their conditions need not be identical. Equal values may be shown once.
